Assay results published in patent US20240116832A1, “INHIBITORS OF SOIL NITRIFICATION AND PROCESSES TO PREVENT SAME” (Tessenderlo Group NV, priority 2019, published 2024).

System: earthworms
Conditions: after 14 days

Ammonium thiosulfate
earthworms died (15 to 1500 L/ha, 10 earthworms per pot): no earthworms had died
earthworm biomass decrease (acceptable limit 20%): 3.9%
